{"sequences": {"note": "By UniProt entry, the sequences of proteins in these tests, tags left out.", "UniProt P35372, whole entry": "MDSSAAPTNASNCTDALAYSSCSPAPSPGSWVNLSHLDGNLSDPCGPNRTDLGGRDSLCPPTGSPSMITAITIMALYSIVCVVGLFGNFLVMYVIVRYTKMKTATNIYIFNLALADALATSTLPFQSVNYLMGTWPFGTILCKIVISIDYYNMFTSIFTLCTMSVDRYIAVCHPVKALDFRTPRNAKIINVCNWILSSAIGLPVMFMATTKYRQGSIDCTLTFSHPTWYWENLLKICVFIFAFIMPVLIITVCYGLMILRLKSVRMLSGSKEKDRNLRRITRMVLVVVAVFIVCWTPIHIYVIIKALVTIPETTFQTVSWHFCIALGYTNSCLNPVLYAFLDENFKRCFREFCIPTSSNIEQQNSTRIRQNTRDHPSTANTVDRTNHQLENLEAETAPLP"}, "source": "ChEMBL document CHEMBL6114989", "about": "“D-morphinan analogs with favorable pharmacokinetic profiles as dual-acting antidepressants” (Eur J Med Chem, 2025)", "molecular_target": "Mu-type opioid receptor (Homo sapiens, UniProt P35372)", "assay": "Agonist activity at human mu-opioid receptor stably expressed in CHO cells assessed as inhibition of forskolin-induced cAMP accumulation preincubated with compound for 10 mins followed by forskolin induction and measured after 30 mins by LANCE Ultra cAMP assay", "format": "functional, cell-based", "data": [{"smiles": "CN1CC[C@@]23CCCC[C@@H]2[C@@H]1Cc1ccc(O)cc13", "note": "[DEXTRORPHAN]", "values": [{"measurement": "EC50", "result": 11, "unit": "µM"}]}]}
